This passage reports Ratio results from ChEMBL document CHEMBL3232832, “Derivatives of dibenzothiophene for positron emission tomography imaging of α7-nicotinic acetylcholine receptors” (J Med Chem, 2013).

The subject of this data set is Nucleic Acid. Briefly: Ratio of drug uptake in cortex to cerebellum in monkey. The following applies: rhesus monkey, in vivo.

Take `[11CH3]Nc1cccc(C(=O)O[C@H]2CN3CCC2CC3)c1`: the Ratio is 0.4.
